Experimental data reported in PubChem BioAssay AID686964 (The Scripps Research Institute Molecular Screening Center, 2013).
This is a selection; strong and weak results do not stand in their true shares. Active and inactive are the calls of the source. Rule as the data show it: active = inhibition above about 13%; inactive = the rest.

Sequences of proteins named here, by UniProt entry; tags and fusion partners are left off.
UniProt Q9UBB5, whole entry: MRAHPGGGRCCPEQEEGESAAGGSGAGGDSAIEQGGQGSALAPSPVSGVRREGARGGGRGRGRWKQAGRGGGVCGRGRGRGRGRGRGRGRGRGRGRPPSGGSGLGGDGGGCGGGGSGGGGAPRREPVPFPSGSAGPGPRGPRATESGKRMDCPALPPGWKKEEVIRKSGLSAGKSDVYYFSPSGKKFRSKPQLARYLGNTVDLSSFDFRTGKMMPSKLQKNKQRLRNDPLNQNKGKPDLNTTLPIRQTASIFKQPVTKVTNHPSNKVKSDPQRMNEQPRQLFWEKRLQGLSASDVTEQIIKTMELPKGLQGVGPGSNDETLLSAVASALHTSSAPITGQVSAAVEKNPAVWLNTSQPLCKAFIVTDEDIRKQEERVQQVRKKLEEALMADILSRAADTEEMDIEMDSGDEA

These compounds were tested against Methyl-CpG-binding domain protein 2 (Homo sapiens) (UniProt Q9UBB5) (assay: inhibitors of MBD2 binding to methylated DNA, primary screen, biochemical, TR-FRET, DNA-binding domain, human (AID 686964)). Details: MBD2 binding to methylated oligonucleotide, at 4.4 µM, hits give high values.

| Structure (SMILES) | inhibition |
| --- | --- |
| N/C(=N\O)c1c(N)no[n+]1[O-] | inactive: -1.9% |
| CCOC(=O)N1CCC(Nc2ccc(C)cc2)CC1 | inactive: 0.86% |
| COc1cccc(C(c2nnnn2C(C)(C)C)N2CCC(n3c(=O)[nH]c4ccccc43)CC2)c1OC (stereo not given) | inactive: 3.33% |
| CCCCn1nnnc1C(c1cccc(OC)c1OC)N1CCC(n2c(=O)[nH]c3ccccc32)CC1 (stereo not given) | inactive: -3.96% |
| O=C(OC1CN2CCC1CC2)C1c2ccccc2C=Cc2ccccc21 (stereo not given) | inactive: 2% |
| O=c1[nH]c2ccccc2n1C1CCN(C(c2cccs2)c2nnnn2C2CCCC2)CC1 (stereo not given) | inactive: -1.67% |
| O=C(NCC1(N2CCOCC2)CCCCC1)c1cc(Br)ccc1Cl | inactive: 0.95% |
| CCCCn1nnnc1C(c1ccccc1)N1CCC(n2c(=O)[nH]c3ccccc32)CC1 (stereo not given) | inactive: 1.26% |
| COc1cc(C(=O)NCC2(N3CCOCC3)CCCCC2)cc(OC)c1C | inactive: 4.89% |
| COc1ccc(C(=O)NCC2(N3CCOCC3)CCCCC2)cc1OC | inactive: 0.72% |
| O=c1[nH]c2ccccc2n1C1CCN(C(c2ccnc3ccccc23)c2nnnn2C2CCCC2)CC1 (stereo not given) | inactive: -2.27% |
| O=c1[nH]c2ccccc2n1C1CCN(C(c2cccs2)c2nnnn2C2CCCCC2)CC1 (stereo not given) | inactive: -2.3% |
| NC(=O)C1(Nc2ccccc2)CCN(Cc2ccccc2)CC1 | inactive: -0.03% |
| C/C(N)=N\P(=O)(Oc1ccccc1)Oc1ccccc1 | inactive: 0% |
| c1ccc(CN2CCC(Nc3ccccc3)CC2)cc1 | inactive: 7.19% |
| Cc1cc(N(CCCl)CCCl)ccc1C=O | inactive: -1.84% |
| CCCN1CCC(Nc2cc(OC)cc(OC)c2)CC1 | inactive: 7.8% |
| O=c1[nH]c2ccccc2n1C1CCN(C(c2ccccc2)c2nnnn2C2CCCC2)CC1 (stereo not given) | inactive: -1.18% |
| CN(C)C1(CNC(=O)c2cccc(C#N)c2)CCCCC1 | inactive: 1.46% |
| CC(C)(C)n1nnnc1C(c1cccc2ccccc12)N1CCC(n2c(=O)[nH]c3ccccc32)CC1 (stereo not given) | inactive: 1.35% |

| Structure (SMILES) | inhibition |
| --- | --- |
| CC(C)(C)OC(=O)N1CCC(N(C(=O)c2ccccc2)c2ccc(Cl)cc2)CC1 | inactive: -0.6% |
| N#Cc1ccc(C(=O)NCC2(N3CCCCC3)CCCCC2)cc1 | inactive: 2.58% |
| Cc1ccccc1NC1(C#N)CCN(Cc2ccccc2)CC1 | inactive: -5.67% |
| CCN1CCC(Nc2cccc(F)c2)CC1 | inactive: -0.74% |
| COc1ccc(C(c2nnnn2C2CCCCC2)N2CCC(n3c(=O)[nH]c4ccccc43)CC2)cc1 (stereo not given) | inactive: 0.24% |
| CC(C)(C)n1nnnc1C(c1ccnc2ccccc12)N1CCC(n2c(=O)[nH]c3ccccc32)CC1 (stereo not given) | inactive: -1.27% |
| O=C(NCC1(N2CCCCC2)CCCCC1)c1ccco1 | inactive: -0.44% |
| CN(C)c1ccc(C(=O)NCC2(N3CCCCC3)CCCCC2)cc1 | inactive: -4.37% |
| Cn1c(=O)[nH]cc(N(CCCl)CCCl)c1=O | inactive: -4.37% |
| COc1cc(OC)cc(C(=O)NCC2(N3CCCCC3)CCCCC2)c1 | inactive: 0.77% |
| O=c1[nH]c2ccccc2n1C1CCN(C(c2ccnc3ccccc23)c2nnnn2C2CCCCC2)CC1 (stereo not given) | inactive: 1.1% |
| COc1cccc(C(c2nnnn2C2CCCCC2)N2CCC(n3c(=O)[nH]c4ccccc43)CC2)c1OC (stereo not given) | inactive: 0.79% |
| CC(=O)N(c1ccccc1)C1CCNCC1 | inactive: 5.19% |
| CCC(c1nnnn1C1CCCCC1)N1CCC(n2c(=O)[nH]c3ccccc32)CC1 (stereo not given) | inactive: 2.4% |
| Cc1ccc(NC2(C#N)CCN(Cc3ccccc3)CC2)cc1 | inactive: -6.05% |
| Cc1ccc(C(=O)NCC2(N3CCCCC3)CCCCC2)o1 | inactive: -6.49% |
| Fc1ccccc1NC1CCN(Cc2ccccc2)CC1 | inactive: -0.63% |
| CCC(CO)(C(=O)OC1CN2CCC1CC2)c1ccccc1 (stereo not given) | inactive: -1.09% |
| COc1cccc(C(=O)N(c2cc(C)cc(C)c2)C2CCN(C(=O)OC(C)(C)C)CC2)c1 | inactive: -3.83% |
| COc1cccc(C(c2nnnn2C2CCCC2)N2CCC(n3c(=O)[nH]c4ccccc43)CC2)c1OC (stereo not given) | inactive: -5.71% |

| Structure (SMILES) | inhibition |
| --- | --- |
| COc1cc(OC)cc(C(=O)NCC2(N3CCOCC3)CCCCC2)c1 | inactive: -0.79% |
| CN1CCC(Nc2ccc(Cl)cc2)CC1 | inactive: 6.9% |
| CCOc1ncccc1C(=O)NCC1(N2CCOCC2)CCCCC1 | inactive: -4.32% |
| CN1CCC(Nc2ccc(F)c(Cl)c2)CC1 | inactive: 2.57% |
| O=c1[nH]c2ccccc2n1C1CCN(C(c2cc3ccccc3o2)c2nnnn2C2CCCC2)CC1 (stereo not given) | inactive: 3.03% |
| CCCOc1ccc(C(=O)NCC2(N(C)C)CCCCC2)cc1 | inactive: 4.51% |
| CC(C)(C)OC(=O)N1CCC(Nc2ccccc2)CC1 | inactive: 0.79% |
| NN(c1ccccc1)C1CCN(CCc2ccccc2)CC1 | inactive: -3.88% |
| O=C(O)C1(Nc2ccccc2)CCN(Cc2ccccc2)CC1 | inactive: 3.7% |
| O=C(NCC1(N2CCOCC2)CCCCC1)c1cc2ccccc2o1 | inactive: -2.21% |
| O=C(NCC1(N2CCCCC2)CCCCC1)c1ccc(Cl)nc1 | inactive: -0.43% |
| O=c1[nH]c2ccccc2n1C1CCN(C(c2ccccc2OC(F)(F)F)c2nnnn2C2CCCCC2)CC1 (stereo not given) | inactive: -1.22% |
| Cc1cc(C)cc(N(C(=O)c2ccccc2)C2CCN(C(=O)OC(C)(C)C)CC2)c1 | inactive: 3.26% |
| CCOC(=O)N1CCC(Nc2ccc(OC)cc2)CC1 | inactive: -1.36% |
| CCCCn1nnnc1C(c1ccc(OC)cc1)N1CCC(n2c(=O)[nH]c3ccccc32)CC1 (stereo not given) | inactive: 0.13% |
| N#CC1(Nc2ccccc2)CCN(Cc2ccccc2)CC1 | inactive: 1.37% |
| O=C(NCC1(N2CCCCC2)CCCCC1)c1ccc(Cl)s1 | inactive: 4.37% |
| O=c1[nH]c2ccccc2n1C1CCN(C(c2cc3ccccc3o2)c2nnnn2C2CCCCC2)CC1 (stereo not given) | inactive: 0.21% |
| O=C(OC1CN2CCC1CC2)C1c2ccccc2Oc2ccccc21 (stereo not given) | inactive: 1.02% |
| COc1ccc(Cl)cc1C(=O)NCC1(N2CCOCC2)CCCCC1 | inactive: -2.57% |
